Literature values, collected in patent publication US5707615A, “Method of treating HIV infections with anti-viral formulations” (Merrell Pharmaceuticals Inc., priority 1997, dated 1998).

Test system: influenza
Settings: cited from earlier work

## OC[C@H]1OC(O)[C@@H](F)[C@@H](O)[C@@H]1O (stereo partly drawn) [2-deoxy-2-fluoro-D-mannose]
  antiviral activity, influenza infected cells: inhibit antiviral activity against influenza infected cells by preventing the glycosylation of viral membrane protein
